# Values of other authors as cited in patent US20150033371A1, “HAIR FOLLICLE STEM CELLS AND METHODS OF USE SAME” (University of Southern California, priority 2011, published 2015).
# B1: BMP-2: bone morphogenetic protein 2 (protein, UniProt P12643 283-396, looked up)
# Bone morphogenetic protein 2: QAKHKQRKRLKSSCKRHPLYVDFSDVGWNDWIVAPPGYHAFYCHGECPFPLADHLNSTNHAIVQTLVNSVNSKIPKACCVPTELSAISMLYLDENEKVVLKNYQDMVVEGCGCR
# Test system: gremlin
# Settings: reported; cited from earlier work
molecule,measurement,value
B1,gremlin level,time- and dose-dependent increase in gremlin
